# Values of other authors, collected in patent US20090054493A1, “THIAZOLE DERIVATIVES AS PPAR DELTA LIGANDS AND THEIR MANUFACTURING PROCESS” (priority 2005, published 2009).
# Sequences of proteins named here, by UniProt entry; tags and fusion partners are left off. A change or cut given only in a name is not applied to a line headed by its entry.
# UniProt Q03181, whole entry: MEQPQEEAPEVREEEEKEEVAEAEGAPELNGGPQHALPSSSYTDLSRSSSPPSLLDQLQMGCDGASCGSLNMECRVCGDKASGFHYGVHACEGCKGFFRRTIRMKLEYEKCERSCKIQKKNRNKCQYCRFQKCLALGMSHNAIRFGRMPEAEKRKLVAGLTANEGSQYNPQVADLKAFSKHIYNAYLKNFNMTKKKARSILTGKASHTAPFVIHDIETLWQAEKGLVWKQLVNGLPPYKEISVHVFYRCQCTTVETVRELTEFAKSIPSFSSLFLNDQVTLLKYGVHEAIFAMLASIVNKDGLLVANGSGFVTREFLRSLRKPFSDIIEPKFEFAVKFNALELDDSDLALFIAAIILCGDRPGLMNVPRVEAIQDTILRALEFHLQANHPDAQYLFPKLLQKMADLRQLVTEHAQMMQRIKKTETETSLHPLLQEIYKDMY
# Target: PPARδ (Homo sapiens, UniProt Q03181)
# Conditions: background art; cited from earlier work
structure (smiles),measurement,value
CCCc1c(OCCCSc2ccc(CC(=O)O)cc2Cl)ccc2c(C(F)(F)F)noc12,selectivity for other hPPAR subtypes,no selectivity
